Reference: patent US9289388B2, “Methods and compositions for delivery of medicaments to the lungs” (Paka Pulmonary Pharmaceuticals, Inc., priority 2008, dated 2016)
pKi: −log10 of the molar value.

Sequences of proteins named here, by UniProt entry; tags and fusion partners are left off. Residues count along the entry.
UniProt P08246, 30-267 limits assumed: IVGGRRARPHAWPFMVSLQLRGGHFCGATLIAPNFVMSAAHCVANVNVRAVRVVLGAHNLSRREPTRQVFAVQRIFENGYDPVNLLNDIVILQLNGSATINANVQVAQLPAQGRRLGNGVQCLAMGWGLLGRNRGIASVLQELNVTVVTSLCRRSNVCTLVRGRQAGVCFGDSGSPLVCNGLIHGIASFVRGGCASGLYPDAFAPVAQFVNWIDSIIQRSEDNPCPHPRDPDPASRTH

How the values were obtained:
[1] = test system: mice with HNE induced emphysema; test: HNE induced emphysema, intratracheal delivery, lung histology and mean linear intercept after four weeks
Method: A total of 42 animals were used in this study. Anesthesized mice received 0.1 ml of solution delivered by intratracheal instillation as described above in Example 4. Animals were divided into the following treatment groups: four animals received saline only; ten animals received HNE only; four animals received the Zeneca inhibitor (target 2) only; eight animals received HNE mixed with the Zeneca inhibitor (target 2); eight animals received Zeneca inhibitor linked to a lung surfactant peptide (target C) only; and eight animals received HNE mixed with Zeneca inhibitor linked to a lung surfactant peptide (target C). Animals receiving HNE were instilled with 40 micrograms HNE. Target 2 (Zeneca inhibitor) was administered in a 70-fold molar excess relative to HNE and Target C (Zeneca inhibitor linked to a lung surfactant peptide) was administered in a 100 fold molar excess relative to HNE as described in Example 4.
All animals were observed a four week period prior to sacrifice following IRB approved protocols and the lungs from each animal were removed for sectioning. The Hilar and central region was sectioned from the left lung and the caudal region was sectioned from the right lung of each animal. Lung sections were scored using blind-scoring by an expert as “E” for emphysema and “N” for no emphysema.
The distance between adjacent alveolar walls was also measured to quantitate the degree of lung destruction for each treatment group. Lung sections obtained from each animal were analyzed under a microscope (which is connected to a computer) and lines were drawn over the lung sections between adjacent alveolar walls. The distance along the lines was calculated to determine the average distance or mean linear intercept (MLI) between adjacent alveolar walls. An increase in the average distance between adjacent alveolar walls corresponds to an increase in lung destruction.

HNE = HNE (Homo sapiens, UniProt P08246); test: kinetic studies of HNE inhibition; conditions: read-out: affinity for HNE
Method: (§1) Target 2 (the Zeneca molecule) was given in a 70-fold molar excess relative to HNE. In the kinetic studies, Target 2 has 2 nM affinity. Target C (the Zeneca molecule covalently attached to the first 25 residues of the human surfactant peptide B) loses approximately two orders of magnitude of potency as compared to Target 2 in the kinetic studies and thus Target C has approximately 200 nM affinity for HNE. Accordingly, the Target C was given to the animals in a 100 fold molar excess relative to HNE in these studies.

mice exposed to HNE = test: Bronchoalveolar lavage of the lungs following HNE exposure (lung blood cell level)
Method: A total of 14 animals were used in this study. Anesthetized mice received 0.1 ml of solution delivered by a blunt tip catheter to the opening of the trachea and the animals allowed to aspirate the solution into their lungs (this method is also referred to as intratracheal instillation). All animals were exposed to the treatment for 2 hours and re-anesthetized. Bronchoalveolar lavage of the lungs was performed as described below. […] Target 2 (a potent HNE inhibitor developed by Zeneca in the early 1990s) when given with the HNE, reduced the average blood level in the lungs by 34% to 0.035 grams. Target C (the Zeneca molecule covalently attached to the N-terminus of the first 25 residues of the human surfactant B peptide) when given with the HNE reduced the average blood level in the lungs by 87% to 0.007 grams.
A set of animals was used to determine the optimal concentration of HNE for the study. […] The amount of HNE was reduced to 40 micrograms to maintain a maximal detrimental but survivable effect. The animals exposed to 40 micrograms of HNE were able to survive long enough to perform the complete study. All animals remaining in the complete study were exposed to 40 micrograms of HNE.
as §1
Bronchio-Alveolar lavage (BAL) is performed by 1) anesthetizing the animals; 2) performing a tracheotomy on the animals and cutting open the chest and spreading the ribs to enable full lung expansion; 3) pressurizing 1 ml of PBS buffer solution into the lungs through the tracheotomy catheter; 4) sucking the solution out of the lungs; 5) centrifuging the recovered solution to separate the red blood cell fraction from the liquid fraction; and 6) weighing the red blood cell fraction.

[2] = given with 40 micrograms HNE by intratracheal instillation, 2 hours, weight of BAL red blood cell fraction

`CC(C)[C@H](NC(=O)CC(=O)O)C(=O)N1CCCC1C(=O)N[C@H](C(=O)C(F)(F)C(=O)NCc1ccccc1)C(C)C` (some centres unmarked) was tested, and the “MLI (mean linear intercept between adjacent alveolar walls)” value ([1]; HNE (40 micrograms) mixed with compound, intratracheal, four weeks, saline only 44.40, HNE only 51.45) was 53.27 μm, the “effect on HNE induced emphysema by MLI” value ([1]; HNE + compound, compared to HNE only and saline only) was “no effect on HNE induced emphysema” and the “effect on HNE induced emphysema, lung histology sections” value ([1]; HNE mixed with compound, four weeks, blind scoring) was “no effect on HNE induced emphysema”. For the same compound, the pKi (HNE) was 8.70, the “Lung Blood Cell Level, Group mean” value (mice exposed to HNE; [2]) was 0.035 g and the “Lung Blood Cell Level, Mouse Group 4” value (mice exposed to HNE; [2]) was 0.039 g. The “Lung Blood Cell Level, Mouse group 1” value (mice exposed to HNE; [2]) was 0.03 g, the “Lung Blood Cell Level, Mouse group 2” value (mice exposed to HNE; [2]) was 0.041 g and the “Lung Blood Cell Level, Mouse group 3” value (mice exposed to HNE; [2]) was 0.03 g. For the same compound, the “average blood level in the lungs” value (mice exposed to HNE; given with the HNE, 2 hours, HNE alone 0.053 grams) was 0.035 grams and the “reduction of the average blood level in the lungs” value (mice exposed to HNE; given with the HNE, versus HNE alone) was 34%.
